{"source": "PubChem BioAssay (NCI)", "assay_in_all_cases": "NCI anticancer screen, dose series, 48 h", "key": {"[1]": {"test_system": "ACHN renal"}, "[2]": {"test_system": "DMS 114 small cell lung"}, "[3]": {"test_system": "HCT-116 colon"}, "[4]": {"test_system": "SR leukemia"}, "[5]": {"test_system": "OVCAR-5 ovarian"}, "[6]": {"test_system": "HCC-2998 colon"}, "[7]": {"test_system": "IGROV1 ovarian"}, "[8]": {"test_system": "MCF7 breast"}, "[9]": {"test_system": "DLD-1 colon"}, "[10]": {"test_system": "RXF 393 renal"}, "[11]": {"test_system": "SF-295 CNS"}, "[12]": {"test_system": "SK-MEL-28 melanoma"}, "[13]": {"test_system": "SW-620 colon"}, "[14]": {"test_system": "HS 578T breast"}, "[15]": {"test_system": "HT29 colon"}, "[16]": {"test_system": "HOP-18 NSCLC"}, "[17]": {"test_system": "DMS 273 small cell lung"}, "[18]": {"test_system": "CCRF-CEM leukemia"}, "[19]": {"test_system": "KM12 colon"}, "[20]": {"test_system": "NCI-H23 lung"}, "[21]": {"test_system": "UACC-62 melanoma"}, "[22]": {"test_system": "SNB-78 CNS"}, "[23]": {"test_system": "786-0 renal"}, "[24]": {"test_system": "NCI/ADR-RES ovarian"}, "[25]": {"test_system": "DU-145 prostate"}, "[26]": {"test_system": "UO-31 renal"}, "[27]": {"test_system": "MALME-3M melanoma"}, "[28]": {"test_system": "HL-60(TB) leukemia"}, "[29]": {"test_system": "HOP-92 NSCLC"}, "[30]": {"test_system": "NCI-H226 lung"}, "[31]": {"test_system": "OVCAR-4 ovarian"}, "[32]": {"test_system": "KM20L2 colon"}, "[33]": {"test_system": "MOLT-4 leukemia"}, "[34]": {"test_system": "A498 renal"}, "[35]": {"test_system": "SNB-19 CNS"}, "[36]": {"test_system": "NCI-H460 lung"}, "[37]": {"test_system": "PC-3 prostate"}, "[38]": {"test_system": "OVCAR-3 ovarian"}, "[39]": {"test_system": "NCI-H322M lung"}, "[40]": {"test_system": "SK-MEL-2 melanoma"}, "[41]": {"test_system": "NCI-H522 lung"}, "[42]": {"test_system": "SF-539 CNS"}, "[43]": {"test_system": "UACC-257 melanoma"}, "[44]": {"test_system": "SK-MEL-5 melanoma"}, "[45]": {"test_system": "LOX IMVI melanoma"}, "[46]": {"test_system": "K-562 leukemia"}, "[47]": {"test_system": "M14 melanoma"}, "[48]": {"test_system": "MDA-MB-231 breast"}, "[49]": {"test_system": "A549 NSCLC"}, "[50]": {"test_system": "T-47D breast"}}, "note": "Some structures show a salt or complex split into parts, the way the source records it.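 1) Cells in 96-well plates. 2) Compound, 48 h, 5 concentrations. 3) Linear interpolation between surrounding doses. 4) Unreached endpoint = highest concentration. GI50 = concentration required for 50% inhibition of growth. TGI is the concentration that stops growth completely.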"}
{"smiles": "[Au+].[Au+].c1ccc([PH+](c2ccccc2)c2ccccc2)cc1.c1ccc([PH+](c2ccccc2)c2ccccc2)cc1.n1n[n-]c(-c2nnn[n-]2)n1", "values": [{"measurement": "GI50", "setting": "[1]", "value": 13.6, "unit": "µM"}, {"measurement": "TGI", "setting": "[1]", "value": 26.5, "unit": "µM"}, {"measurement": "GI50", "setting": "[2]", "value": 3.8, "unit": "µM"}, {"measurement": "TGI", "setting": "[2]", "value": 66.8, "unit": "µM"}, {"measurement": "GI50", "setting": "[3]", "value": 9.26, "unit": "µM"}, {"measurement": "TGI", "setting": "[3]", "value": 30.8, "unit": "µM"}, {"measurement": "GI50", "setting": "[4]", "value": 2.19, "unit": "µM"}, {"measurement": "TGI", "setting": "[4]", "value": 8.86, "unit": "µM"}, {"measurement": "GI50", "setting": "[5]", "value": 15.6, "unit": "µM"}, {"measurement": "TGI", "setting": "[5]", "value": 29.5, "unit": "µM"}, {"measurement": "GI50", "setting": "[6]", "value": 11, "unit": "µM"}, {"measurement": "TGI", "setting": "[6]", "value": 24.2, "unit": "µM"}, {"measurement": "GI50", "setting": "[7]", "value": 7.14, "unit": "µM"}, {"measurement": "TGI", "setting": "[7]", "value": 20.3, "unit": "µM"}, {"measurement": "GI50", "setting": "[8]", "value": 7.33, "unit": "µM"}, {"measurement": "TGI", "setting": "[8]", "value": 33.7, "unit": "µM"}, {"measurement": "GI50", "setting": "[9]", "value": 3.57, "unit": "µM"}, {"measurement": "TGI", "setting": "[9]", "value": 15.5, "unit": "µM"}, {"measurement": "GI50", "setting": "[10]", "value": 3.18, "unit": "µM"}, {"measurement": "TGI", "setting": "[10]", "value": 10.2, "unit": "µM"}, {"measurement": "GI50", "setting": "[11]", "value": 6.66, "unit": "µM"}, {"measurement": "TGI", "setting": "[11]", "value": 16.6, "unit": "µM"}, {"measurement": "GI50", "setting": "[12]", "value": 3.11, "unit": "µM"}, {"measurement": "TGI", "setting": "[12]", "value": 13.5, "unit": "µM"}, {"measurement": "GI50", "setting": "[13]", "value": 3.57, "unit": "µM"}, {"measurement": "TGI", "setting": "[13]", "value": 21.2, "unit": "µM"}, {"measurement": "GI50", "setting": "[14]", "value": 15.2, "unit": "µM"}, {"measurement": "TGI", "setting": "[14]", "value": "> 100", "unit": "µM"}, {"measurement": "GI50", "setting": "[15]", "value": 8.14, "unit": "µM"}, {"measurement": "TGI", "setting": "[15]", "value": 22.5, "unit": "µM"}, {"measurement": "GI50", "setting": "[16]", "value": 14.9, "unit": "µM"}, {"measurement": "TGI", "setting": "[16]", "value": 28.5, "unit": "µM"}, {"measurement": "GI50", "setting": "[17]", "value": 6.66, "unit": "µM"}, {"measurement": "TGI", "setting": "[17]", "value": 29.3, "unit": "µM"}, {"measurement": "GI50", "setting": "[18]", "value": 1.67, "unit": "µM"}, {"measurement": "TGI", "setting": "[18]", "value": 13.4, "unit": "µM"}, {"measurement": "GI50", "setting": "[19]", "value": 9.61, "unit": "µM"}, {"measurement": "TGI", "setting": "[19]", "value": 29, "unit": "µM"}, {"measurement": "GI50", "setting": "[20]", "value": 6.2, "unit": "µM"}, {"measurement": "TGI", "setting": "[20]", "value": 21.9, "unit": "µM"}, {"measurement": "GI50", "setting": "[21]", "value": 4.57, "unit": "µM"}, {"measurement": "TGI", "setting": "[21]", "value": 16.9, "unit": "µM"}, {"measurement": "GI50", "setting": "[22]", "value": 3.74, "unit": "µM"}, {"measurement": "TGI", "setting": "[22]", "value": 53.2, "unit": "µM"}, {"measurement": "GI50", "setting": "[23]", "value": 2.55, "unit": "µM"}, {"measurement": "TGI", "setting": "[23]", "value": 10, "unit": "µM"}, {"measurement": "GI50", "setting": "[24]", "value": 21.3, "unit": "µM"}, {"measurement": "TGI", "setting": "[24]", "value": 56, "unit": "µM"}, {"measurement": "GI50", "setting": "[25]", "value": 11.8, "unit": "µM"}, {"measurement": "TGI", "setting": "[25]", "value": 25, "unit": "µM"}, {"measurement": "GI50", "setting": "[26]", "value": 8.04, "unit": "µM"}, {"measurement": "TGI", "setting": "[26]", "value": 20.6, "unit": "µM"}, {"measurement": "GI50", "setting": "[27]", "value": 5.57, "unit": "µM"}, {"measurement": "TGI", "setting": "[27]", "value": 14.9, "unit": "µM"}, {"measurement": "GI50", "setting": "[28]", "value": 2.62, "unit": "µM"}, {"measurement": "TGI", "setting": "[28]", "value": 11.2, "unit": "µM"}, {"measurement": "GI50", "setting": "[29]", "value": 9.79, "unit": "µM"}, {"measurement": "TGI", "setting": "[29]", "value": 21.7, "unit": "µM"}, {"measurement": "GI50", "setting": "[30]", "value": 7.79, "unit": "µM"}, {"measurement": "TGI", "setting": "[30]", "value": 18, "unit": "µM"}, {"measurement": "GI50", "setting": "[31]", "value": 7.8, "unit": "µM"}, {"measurement": "TGI", "setting": "[31]", "value": 23.4, "unit": "µM"}, {"measurement": "GI50", "setting": "[32]", "value": 10.5, "unit": "µM"}, {"measurement": "TGI", "setting": "[32]", "value": 30.7, "unit": "µM"}, {"measurement": "GI50", "setting": "[33]", "value": 4.49, "unit": "µM"}, {"measurement": "TGI", "setting": "[33]", "value": 80.7, "unit": "µM"}, {"measurement": "GI50", "setting": "[34]", "value": 15.2, "unit": "µM"}, {"measurement": "TGI", "setting": "[34]", "value": 28.5, "unit": "µM"}, {"measurement": "GI50", "setting": "[35]", "value": 3.72, "unit": "µM"}, {"measurement": "TGI", "setting": "[35]", "value": 9.45, "unit": "µM"}, {"measurement": "GI50", "setting": "[36]", "value": 11, "unit": "µM"}, {"measurement": "TGI", "setting": "[36]", "value": 33.5, "unit": "µM"}, {"measurement": "GI50", "setting": "[37]", "value": 11.8, "unit": "µM"}, {"measurement": "TGI", "setting": "[37]", "value": 24.4, "unit": "µM"}, {"measurement": "GI50", "setting": "[38]", "value": 6.79, "unit": "µM"}, {"measurement": "TGI", "setting": "[38]", "value": 17.6, "unit": "µM"}, {"measurement": "GI50", "setting": "[39]", "value": 12.9, "unit": "µM"}, {"measurement": "TGI", "setting": "[39]", "value": 25.9, "unit": "µM"}, {"measurement": "GI50", "setting": "[40]", "value": 2.4, "unit": "µM"}, {"measurement": "TGI", "setting": "[40]", "value": 7.95, "unit": "µM"}, {"measurement": "GI50", "setting": "[41]", "value": 1.45, "unit": "µM"}, {"measurement": "TGI", "setting": "[41]", "value": 2.97, "unit": "µM"}, {"measurement": "GI50", "setting": "[42]", "value": 7.16, "unit": "µM"}, {"measurement": "TGI", "setting": "[42]", "value": 20.7, "unit": "µM"}, {"measurement": "GI50", "setting": "[43]", "value": 4.06, "unit": "µM"}, {"measurement": "TGI", "setting": "[43]", "value": 18, "unit": "µM"}, {"measurement": "GI50", "setting": "[44]", "value": 5.41, "unit": "µM"}, {"measurement": "TGI", "setting": "[44]", "value": 18.1, "unit": "µM"}, {"measurement": "GI50", "setting": "[45]", "value": 4.19, "unit": "µM"}, {"measurement": "TGI", "setting": "[45]", "value": 14.4, "unit": "µM"}, {"measurement": "GI50", "setting": "[46]", "value": 2.58, "unit": "µM"}, {"measurement": "TGI", "setting": "[46]", "value": 34.7, "unit": "µM"}, {"measurement": "GI50", "setting": "[47]", "value": 3.84, "unit": "µM"}, {"measurement": "TGI", "setting": "[47]", "value": 15.5, "unit": "µM"}, {"measurement": "GI50", "setting": "[48]", "value": 15.8, "unit": "µM"}, {"measurement": "TGI", "setting": "[48]", "value": 35.3, "unit": "µM"}, {"measurement": "GI50", "setting": "[49]", "value": 10.2, "unit": "µM"}, {"measurement": "TGI", "setting": "[49]", "value": 36.4, "unit": "µM"}, {"measurement": "GI50", "setting": "[50]", "value": 6.35, "unit": "µM"}, {"measurement": "TGI", "setting": "[50]", "value": 26.9, "unit": "µM"}]}
